In US20140086890A1, “COMPOSITIONS AND METHODS FOR TREATING HYPERPROLIFERATIVE DISORDERS” (priority 2004, published 2014):

How the values were obtained:
[1] = tested on: human RCC cell lines (JOHW, PORJC, SAUJ and STAR); assay type: cell-based
[2] = tested on: human RCC cell lines (JOHW, PORJC, SAUJ and STAR); assay type: cell-based; remark: listed apart in the source

For CC(C)C[C@H](NC(=O)[C@H](Cc1ccccc1)NC(=O)c1cnccn1)B(O)O [Velcade], which “cell lysis of presensitized RCC cells by TRAIL (FIG. 13)” value [1] is on record?
The value was “Increased cell lysis”.

And the “cell lysis of presensitized RCC cells by Fas ligand (FIG. 14)” value [2]?
The value was “Increased cell lysis”.
